# Laboratory results from ChEMBL document CHEMBL1150773, “Novel donepezil-based inhibitors of acetyl- and butyrylcholinesterase and acetylcholinesterase-induced beta-amyloid aggregation” (J Med Chem, 2008).
# The chains behind the UniProt entries cited, without tags or fusion partners. Where a name states a change or a piece, a line headed by the entry shows the natural chain unless it says otherwise.
# UniProt P06276: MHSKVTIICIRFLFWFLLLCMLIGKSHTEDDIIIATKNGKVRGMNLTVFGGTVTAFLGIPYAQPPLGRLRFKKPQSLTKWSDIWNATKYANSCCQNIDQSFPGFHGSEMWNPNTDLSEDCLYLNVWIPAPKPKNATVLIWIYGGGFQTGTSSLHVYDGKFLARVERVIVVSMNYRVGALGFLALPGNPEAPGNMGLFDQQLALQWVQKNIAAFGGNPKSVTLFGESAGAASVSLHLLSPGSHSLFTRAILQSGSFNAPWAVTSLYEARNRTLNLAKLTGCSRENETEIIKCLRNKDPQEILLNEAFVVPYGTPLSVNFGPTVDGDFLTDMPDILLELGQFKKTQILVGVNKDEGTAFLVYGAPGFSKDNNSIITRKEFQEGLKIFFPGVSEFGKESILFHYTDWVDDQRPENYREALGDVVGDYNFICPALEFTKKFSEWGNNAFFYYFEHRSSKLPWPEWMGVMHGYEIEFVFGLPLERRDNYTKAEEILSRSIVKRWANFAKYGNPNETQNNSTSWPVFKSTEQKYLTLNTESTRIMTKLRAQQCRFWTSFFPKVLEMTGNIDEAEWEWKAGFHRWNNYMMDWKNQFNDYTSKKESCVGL
# UniProt P23795: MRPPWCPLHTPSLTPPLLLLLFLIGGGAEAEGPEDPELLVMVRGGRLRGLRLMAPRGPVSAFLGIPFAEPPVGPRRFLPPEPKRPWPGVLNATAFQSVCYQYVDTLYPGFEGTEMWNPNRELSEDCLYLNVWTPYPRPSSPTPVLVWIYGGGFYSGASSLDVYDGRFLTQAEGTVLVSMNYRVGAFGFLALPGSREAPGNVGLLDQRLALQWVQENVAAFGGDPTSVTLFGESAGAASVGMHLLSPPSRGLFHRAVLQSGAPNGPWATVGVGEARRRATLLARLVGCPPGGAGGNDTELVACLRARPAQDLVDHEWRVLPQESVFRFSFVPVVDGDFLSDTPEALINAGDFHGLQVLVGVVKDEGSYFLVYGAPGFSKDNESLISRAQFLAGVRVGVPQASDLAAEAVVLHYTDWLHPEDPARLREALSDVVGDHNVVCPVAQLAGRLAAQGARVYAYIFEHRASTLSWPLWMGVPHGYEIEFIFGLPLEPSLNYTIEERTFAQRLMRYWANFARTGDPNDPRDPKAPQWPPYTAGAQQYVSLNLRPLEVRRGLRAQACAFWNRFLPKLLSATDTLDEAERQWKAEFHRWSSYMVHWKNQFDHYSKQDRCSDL
# UniProt P22303: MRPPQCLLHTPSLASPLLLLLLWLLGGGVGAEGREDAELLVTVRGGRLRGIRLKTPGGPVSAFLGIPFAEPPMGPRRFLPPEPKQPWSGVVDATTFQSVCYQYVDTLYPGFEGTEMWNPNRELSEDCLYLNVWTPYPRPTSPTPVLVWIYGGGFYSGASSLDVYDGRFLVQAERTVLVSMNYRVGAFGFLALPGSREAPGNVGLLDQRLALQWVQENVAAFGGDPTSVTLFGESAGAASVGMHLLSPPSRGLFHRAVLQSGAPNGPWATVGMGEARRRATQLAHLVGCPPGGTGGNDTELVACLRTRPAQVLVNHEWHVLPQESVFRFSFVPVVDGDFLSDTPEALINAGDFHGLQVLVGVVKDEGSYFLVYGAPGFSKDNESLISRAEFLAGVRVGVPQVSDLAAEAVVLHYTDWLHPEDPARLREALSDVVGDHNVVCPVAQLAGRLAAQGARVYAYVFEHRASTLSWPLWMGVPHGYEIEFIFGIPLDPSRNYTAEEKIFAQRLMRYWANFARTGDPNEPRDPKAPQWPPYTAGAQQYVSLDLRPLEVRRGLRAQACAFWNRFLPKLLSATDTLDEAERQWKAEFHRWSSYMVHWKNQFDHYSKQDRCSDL
# Experiments:
# Cholinesterase = Cholinesterase (Homo sapiens, UniProt P06276)
# Acetylcholinesterase [1] = target: Acetylcholinesterase (Bos taurus, UniProt P23795)
# Acetylcholinesterase [2] = target: Acetylcholinesterase (Homo sapiens, UniProt P22303)
substance,measurement,setting,value
"9-[(2-{4-[(5,6-Dimethoxy-1-oxoindan-2-yl)methyl]piperidin-1-yl}ethyl)amino]-1,2,3,4-tetrahydroacridine dihydrochloride",IC50,Cholinesterase,12.4 nM
same,IC50,Acetylcholinesterase [1],1.74 nM
same,IC50,Acetylcholinesterase [2],4.04 nM
